According to PubChem BioAssay AID602261 (Sanford-Burnham Center for Chemical Genomics, 2012):
The list shows a part of the results, in another mix than the full data. Some results for these compounds are left out of this collection, so the calls shown say nothing about other tests. Calls of active or inactive are those of the source.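 Rule for the calls: active = compounds whose normalised, plate-corrected inhibition of enzyme fluorescence in the single-dose primary screen is 50% or more; inactive = the rest.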

Sequences of proteins named here, by UniProt entry; tags and fusion partners are left off.
UniProt P49327, whole entry: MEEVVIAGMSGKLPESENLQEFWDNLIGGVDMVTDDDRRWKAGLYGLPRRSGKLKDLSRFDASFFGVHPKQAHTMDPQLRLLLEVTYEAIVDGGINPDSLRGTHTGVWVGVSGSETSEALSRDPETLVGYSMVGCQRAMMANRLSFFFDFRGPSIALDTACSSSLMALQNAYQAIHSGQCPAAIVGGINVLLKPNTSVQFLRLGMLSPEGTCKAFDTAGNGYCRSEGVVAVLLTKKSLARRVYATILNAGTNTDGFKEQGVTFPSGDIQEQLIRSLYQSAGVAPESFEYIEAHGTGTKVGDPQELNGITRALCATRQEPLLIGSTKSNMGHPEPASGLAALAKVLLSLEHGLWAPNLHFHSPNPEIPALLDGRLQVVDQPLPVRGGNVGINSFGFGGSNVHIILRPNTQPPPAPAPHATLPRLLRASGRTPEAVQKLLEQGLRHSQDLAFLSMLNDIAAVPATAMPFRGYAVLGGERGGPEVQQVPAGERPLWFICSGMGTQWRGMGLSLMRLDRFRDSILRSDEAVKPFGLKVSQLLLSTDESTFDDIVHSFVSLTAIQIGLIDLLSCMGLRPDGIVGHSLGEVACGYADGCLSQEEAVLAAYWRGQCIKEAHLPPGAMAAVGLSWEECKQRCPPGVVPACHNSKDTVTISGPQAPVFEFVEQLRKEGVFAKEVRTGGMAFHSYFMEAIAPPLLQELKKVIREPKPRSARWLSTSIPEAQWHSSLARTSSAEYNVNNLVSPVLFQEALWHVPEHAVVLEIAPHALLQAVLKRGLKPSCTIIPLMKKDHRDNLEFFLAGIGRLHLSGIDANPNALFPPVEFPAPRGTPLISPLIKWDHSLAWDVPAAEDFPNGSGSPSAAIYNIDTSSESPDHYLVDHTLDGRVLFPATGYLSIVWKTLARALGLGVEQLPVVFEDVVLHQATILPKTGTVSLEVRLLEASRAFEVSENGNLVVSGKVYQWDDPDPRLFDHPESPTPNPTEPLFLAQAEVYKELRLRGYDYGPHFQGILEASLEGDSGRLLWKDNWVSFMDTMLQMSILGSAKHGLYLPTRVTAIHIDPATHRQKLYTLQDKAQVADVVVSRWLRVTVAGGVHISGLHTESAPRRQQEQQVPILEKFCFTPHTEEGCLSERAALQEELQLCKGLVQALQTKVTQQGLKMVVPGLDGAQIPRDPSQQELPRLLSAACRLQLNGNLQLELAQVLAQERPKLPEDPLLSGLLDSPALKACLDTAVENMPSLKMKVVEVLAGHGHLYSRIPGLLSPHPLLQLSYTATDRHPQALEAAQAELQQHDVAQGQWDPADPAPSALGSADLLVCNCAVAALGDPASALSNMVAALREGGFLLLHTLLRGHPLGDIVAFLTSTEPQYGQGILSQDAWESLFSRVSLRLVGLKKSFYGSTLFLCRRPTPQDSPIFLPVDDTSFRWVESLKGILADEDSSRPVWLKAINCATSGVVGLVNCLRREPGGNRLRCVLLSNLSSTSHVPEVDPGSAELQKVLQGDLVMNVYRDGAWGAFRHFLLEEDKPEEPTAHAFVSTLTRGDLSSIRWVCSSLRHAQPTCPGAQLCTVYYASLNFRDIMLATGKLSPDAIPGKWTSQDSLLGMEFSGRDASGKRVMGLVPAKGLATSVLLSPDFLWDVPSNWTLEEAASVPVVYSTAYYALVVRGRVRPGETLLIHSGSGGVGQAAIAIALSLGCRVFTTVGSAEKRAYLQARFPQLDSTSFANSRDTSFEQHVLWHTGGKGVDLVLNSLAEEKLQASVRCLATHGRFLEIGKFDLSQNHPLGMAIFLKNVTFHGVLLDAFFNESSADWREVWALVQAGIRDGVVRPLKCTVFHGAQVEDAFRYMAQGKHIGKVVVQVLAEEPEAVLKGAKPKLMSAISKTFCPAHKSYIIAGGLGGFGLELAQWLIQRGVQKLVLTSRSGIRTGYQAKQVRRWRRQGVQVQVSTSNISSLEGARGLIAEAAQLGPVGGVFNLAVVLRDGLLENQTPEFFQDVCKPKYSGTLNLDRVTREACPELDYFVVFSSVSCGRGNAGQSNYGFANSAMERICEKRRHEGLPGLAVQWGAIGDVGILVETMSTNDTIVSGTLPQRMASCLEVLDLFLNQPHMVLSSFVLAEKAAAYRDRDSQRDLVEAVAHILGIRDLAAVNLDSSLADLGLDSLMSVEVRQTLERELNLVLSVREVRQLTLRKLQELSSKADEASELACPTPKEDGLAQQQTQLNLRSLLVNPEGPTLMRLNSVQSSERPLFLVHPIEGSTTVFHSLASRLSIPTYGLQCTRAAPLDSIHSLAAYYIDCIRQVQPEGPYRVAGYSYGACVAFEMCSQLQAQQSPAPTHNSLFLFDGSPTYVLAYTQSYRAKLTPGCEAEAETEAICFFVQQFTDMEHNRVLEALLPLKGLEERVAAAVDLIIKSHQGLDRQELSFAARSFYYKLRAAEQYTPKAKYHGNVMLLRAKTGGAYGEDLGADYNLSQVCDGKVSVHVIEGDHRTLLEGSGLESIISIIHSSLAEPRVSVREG

Target: Fatty acid synthase (Homo sapiens) (UniProt P49327)
Test: inhibition of human FAS-TE enzyme activity – biochemical, fluorescence intensity, uHTS, primary screen (AID 602261);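 note: 0% = DMSO with enzyme and 100% = substrate without enzyme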
Conditions: recombinant FAS-TE, OMFH fluorogenic substrate, fluorescence endpoint; at 15 µM; active compounds read high

Row | Structure (SMILES) | inhibition
1 | O=C(OC1CN2CCC1CC2)C(CO)(c1ccccc1)c1ccccc1 (stereo unspecified) | inactive: -4.3%
2 | COc1ccc(Br)c(C(=O)NCC2(N3CCCCC3)CCCCC2)c1 | inactive: -2%
3 | C=C(C)C#CC(O)(C(=O)OC1CCN(C)CC1)c1ccccc1 (stereo unspecified) | inactive: -5.5%
4 | CN(C)c1cccc(C(=O)NCC2(N(C)C)CCCCC2)c1 | inactive: -1.7%
5 | CC(C)Oc1ccc(C(=O)NCC2(N(C)C)CCCCC2)cc1 | inactive: -4.5%
6 | O=C(OCCN1CCCC1)C(O)(c1ccccc1)c1ccccc1 | inactive: -7.6%
7 | CN(C)C1(CNC(=O)c2ccc(Br)cc2)CCCCC1 | inactive: -3.8%
8 | COc1cc(C(=O)NCC2(N(C)C)CCCCC2)c([N+](=O)[O-])cc1OC | inactive: -6.8%
9 | COc1cccc(C(=O)NCC2(N3CCCCC3)CCCCC2)c1 | inactive: -3.9%
10 | COc1ccc(Cl)cc1C(=O)NCC1(N(C)C)CCCCC1 | inactive: -10.7%
11 | O=C(NCC1(N2CCCCC2)CCCCC1)c1cccc(Cl)c1 | inactive: -4.6%
12 | Cc1ccccc1C(=O)NCC1(N2CCCCC2)CCCCC1 | inactive: -3.8%
13 | CN(C)C1CCCC1OC(=O)C(O)(c1ccccc1)c1ccccc1 (stereo unspecified) | inactive: -6.7%
14 | CN(C)c1ccc(C(=O)NCC2(N(C)C)CCCCC2)cc1 | inactive: -0.1%
15 | C=CCN1CCN(CCOC(=O)C(O)(c2ccccc2)c2ccccc2)CC1 | inactive: -4.5%
16 | O=C(NCC1(N2CCCCC2)CCCCC1)c1cc(F)c(F)cc1Cl | inactive: -3.9%
17 | Cc1cc(C(=O)NCC2(N3CCCCC3)CCCCC2)ccc1[N+](=O)[O-] | inactive: -1.1%
18 | CCN1CCCC(OC(=O)C2(O)c3ccccc3C=Cc3ccccc32)C1 (stereo unspecified) | inactive: -4.6%
19 | O=C(NCC1(N2CCCCC2)CCCCC1)c1cccc(Br)c1 | inactive: -2.4%
20 | COc1ccc(C(=O)NCC2(N(C)C)CCCCC2)cc1 | inactive: -4%
21 | O=C(NCC1(N2CCCCC2)CCCCC1)c1cc([N+](=O)[O-])ccc1Cl | inactive: -3.5%
22 | CN1[C@@H]2CC[C@H]1CC(OC(=O)C(O)(c1ccccc1)c1ccccc1)C2 (stereo partly specified) | inactive: -5.5%
23 | CC(C)N1C(=O)CC2(CCN(CCOC(=O)C(O)(c3ccccc3)c3ccccc3)CC2)C1=O | inactive: -1.4%
24 | CCN(CC)CC(C)C(C)OC(=O)C(O)(c1ccccc1)c1ccccc1 (stereo unspecified) | inactive: -3.6%
25 | COc1cc(SC)ccc1C(=O)NCC1(N(C)C)CCCCC1 | inactive: -1.7%
26 | Cc1ccc(C(=O)NCC2(N3CCCCC3)CCCCC2)cc1 | inactive: -6.5%
